Antibody variant affinities, Ab-95 light chain, assay 2

Values reported by Engelhart et al. 2022, doi:10.1038/s41597-022-01779-4 (FLAb copy).

Binding partner: SARS-CoV-2 spike HR2 peptide, sequence PDVDLGDISGINAS.

Parent scFv Ab-95: VH joined to VL by a 15-residue (Gly4Ser)3 linker. Changes lie in the light chain CDRs alone.
VH: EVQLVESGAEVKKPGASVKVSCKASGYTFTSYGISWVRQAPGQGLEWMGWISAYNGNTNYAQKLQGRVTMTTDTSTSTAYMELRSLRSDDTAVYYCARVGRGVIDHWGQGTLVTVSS
VL: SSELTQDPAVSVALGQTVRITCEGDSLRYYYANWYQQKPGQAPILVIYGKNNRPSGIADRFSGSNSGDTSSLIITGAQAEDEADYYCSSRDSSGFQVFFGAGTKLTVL

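Library AAYL52 holds single substitutions and randomly drawn double and triple substitutions in the CDRs. Affinity was read by AlphaSeq, a pooled yeast mating assay with surface-displayed partners. The frequency of each diploid, read from paired DNA barcodes, reflects how well the two displayed proteins bind. The ratio of observed to expected reads was calibrated, replicate by replicate, on BCL2-family standards whose Kd was known from biolayer interferometry. Mating was done three times.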

Variants are written as CDR1, CDR2 and CDR3 of the light chain (limits as in the source). Parent: EGDSLRYYYAN, GKNNRPS, SSRDSSGFQVF. The Kd shown is the geometric mean over detected replicates; a lower Kd is a better binder. An entry "no signal" has no value in the source: the pair was not observed among the diploids in any replicate. This suggests poor binding but is not conclusive. Empty control strains, which show no peptide, gave a signal in 28% of pairings with library AAYL52; the median was 8.2 µM and 95% of these signals were weaker than 800 nM. No background was subtracted. Parent in this assay: reference entry 200 nM, copy in this library 180 nM.

{"CDR-L1": "EGDSGRYYYGN", "CDR-L2": "GKNNFPS", "CDR-L3": "SSRDSSGFQVF", "Kd (apparent)": "53 µM", "seen in": "2 of 3"}
{"CDR-L1": "EGDSLRYYYAN", "CDR-L2": "GKNNRPS", "CDR-L3": "TSRDQSGFQVF", "Kd (apparent)": "130 nM", "seen in": "3 of 3"}
{"CDR-L1": "EGDSTRYYYAN", "CDR-L2": "GKNNRPS", "CDR-L3": "SSRDSSGFPVY", "Kd (apparent)": "470 nM", "seen in": "3 of 3"}
{"CDR-L1": "FGDSLRKYYAN", "CDR-L2": "HKNNRPS", "CDR-L3": "SSRDSSGFQVF", "Kd (apparent)": "no signal", "seen in": "0 of 3"}
{"CDR-L1": "EGQSLRYYYAN", "CDR-L2": "GKNNRPS", "CDR-L3": "SRTDSSGFQVF", "Kd (apparent)": "11 µM", "seen in": "3 of 3"}
{"CDR-L1": "EGDSLAYYIAN", "CDR-L2": "GKNNRPS", "CDR-L3": "SSRGSSGFQVF", "Kd (apparent)": "no signal", "seen in": "0 of 3"}
{"CDR-L1": "EGDSVRYDYAN", "CDR-L2": "GKNNRPS", "CDR-L3": "SSRDASGFQVF", "Kd (apparent)": "290 nM", "seen in": "3 of 3"}
{"CDR-L1": "EGDSLRYYYAN", "CDR-L2": "GKNNRPN", "CDR-L3": "SSRDSSGNYVF", "Kd (apparent)": "44 nM", "seen in": "3 of 3"}
{"CDR-L1": "EGDSLRMYYPN", "CDR-L2": "GKNNRPS", "CDR-L3": "SHRDSSGFQVF", "Kd (apparent)": "17 µM", "seen in": "3 of 3"}
{"CDR-L1": "EGDSLRYYYAN", "CDR-L2": "GKKNRPS", "CDR-L3": "SSRDSSGFMVP", "Kd (apparent)": "150 nM", "seen in": "1 of 3"}
{"CDR-L1": "EGDSLRIYYAN", "CDR-L2": "GYANRPS", "CDR-L3": "SSRDSSGFQVF", "Kd (apparent)": "no signal", "seen in": "0 of 3"}
{"CDR-L1": "EGDLLRYYYAN", "CDR-L2": "GKNNRAS", "CDR-L3": "SSRDISGFQVF", "Kd (apparent)": "1.3 µM", "seen in": "2 of 3"}
{"CDR-L1": "EGDSLRYYYNR", "CDR-L2": "GKNNFPS", "CDR-L3": "SSRDSSGFQVF", "Kd (apparent)": "5.4 µM", "seen in": "3 of 3"}
{"CDR-L1": "ENDSWRYYYAN", "CDR-L2": "GKNNRPS", "CDR-L3": "SSRDSLGFQVF", "Kd (apparent)": "5.8 µM", "seen in": "2 of 3"}
{"CDR-L1": "EGDSLRYYYAN", "CDR-L2": "GWNNRPS", "CDR-L3": "SSRDSIGFQVH", "Kd (apparent)": "4.0 µM", "seen in": "1 of 3"}
{"CDR-L1": "EGDSNRYYYAG", "CDR-L2": "GKNNRPS", "CDR-L3": "SSRDSSGYQVF", "Kd (apparent)": "no signal", "seen in": "0 of 3"}
{"CDR-L1": "EPDYLRYYYAN", "CDR-L2": "GKNNTPS", "CDR-L3": "SSRDSSGFQVF", "Kd (apparent)": "310 µM", "seen in": "1 of 3"}
{"CDR-L1": "EGDSLRYYYAN", "CDR-L2": "GKNNRCS", "CDR-L3": "SSRDESGFQVF", "Kd (apparent)": "34 nM", "seen in": "3 of 3"}
{"CDR-L1": "EGDSQRCYYAN", "CDR-L2": "GKNNRQS", "CDR-L3": "SSRDSSGFQVF", "Kd (apparent)": "4.9 µM", "seen in": "1 of 3"}
{"CDR-L1": "EGDSLRHYYAN", "CDR-L2": "GKNNRDS", "CDR-L3": "SSEDSSGFQVF", "Kd (apparent)": "no signal", "seen in": "0 of 3"}
{"CDR-L1": "EGDSLRYYYAN", "CDR-L2": "HKNNYPS", "CDR-L3": "SSRDSSGFQVV", "Kd (apparent)": "5.2 µM", "seen in": "1 of 3"}
{"CDR-L1": "EGDSPRYYYAN", "CDR-L2": "GMNNRPS", "CDR-L3": "SSRPSSGFQVF", "Kd (apparent)": "16 µM", "seen in": "3 of 3"}
{"CDR-L1": "EGDSLRYYYAN", "CDR-L2": "GKKNRPS", "CDR-L3": "GSRDSSGFCVF", "Kd (apparent)": "4.2 µM", "seen in": "3 of 3"}
{"CDR-L1": "PVDSLRYYYRN", "CDR-L2": "GKNNRPS", "CDR-L3": "SSRDSSGFQVF", "Kd (apparent)": "no signal", "seen in": "0 of 3"}
{"CDR-L1": "EGDHLRYWYAN", "CDR-L2": "GKNNRPS", "CDR-L3": "ESRDSSGFQVF", "Kd (apparent)": "760 nM", "seen in": "3 of 3"}

A selection of 2 entries from above:

{"CDR-L1": "EGDSLRHYYAN", "CDR-L2": "GKNNRDS", "CDR-L3": "SSEDSSGFQVF", "Kd (apparent)": "no signal", "seen in": "0 of 3"}
{"CDR-L1": "EGQSLRYYYAN", "CDR-L2": "GKNNRPS", "CDR-L3": "SRTDSSGFQVF", "Kd (apparent)": "11 µM", "seen in": "3 of 3"}